74 compounds from PubChem BioAssay AID504634 (The Scripps Research Institute Molecular Screening Center, 2011) can be followed below.

By UniProt entry, the sequences of proteins in these tests, tags left out.
UniProt P47898, whole entry: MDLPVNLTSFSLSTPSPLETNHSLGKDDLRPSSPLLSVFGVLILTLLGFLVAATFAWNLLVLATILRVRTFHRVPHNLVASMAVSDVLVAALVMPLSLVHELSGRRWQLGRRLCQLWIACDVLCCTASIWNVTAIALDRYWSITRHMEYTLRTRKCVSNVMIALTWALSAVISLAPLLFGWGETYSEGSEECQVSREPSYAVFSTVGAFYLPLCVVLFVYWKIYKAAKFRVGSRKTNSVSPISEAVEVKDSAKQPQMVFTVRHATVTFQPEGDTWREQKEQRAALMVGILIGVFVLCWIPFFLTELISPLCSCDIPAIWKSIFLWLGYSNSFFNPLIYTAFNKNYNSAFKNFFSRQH

Molecules are shown by their SMILES. This is a selection; strong and weak results do not stand in their true shares. Activity calls are given as the source filed them. No stated cut-off is given here; in the data, active means inhibition mostly above about 23% (no sharp cut-off); inactive means mostly below about 18%.

This assay deals with 5-hydroxytryptamine receptor 5A (Homo sapiens) (UniProt P47898). The assay can be described thus: inverse agonism at human 5-HT5A receptor – cell-based, luminescence, full-deck HTS, counter-screen for OPRM1-OPRD1 heterodimer inverse agonist project, primary screen (AID 504634).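 Further: 0% = cells with DMSO and 100% = no-cell wells with DMSO.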 The settings on record: HTR5A cell line, at 9.3 µM, active compounds read high. In general terms: A counterscreen serves to expose hits that act by an unwanted route or on another target.
What is called inhibition is the change of the read-out against control, counted positive when it falls. On to `O=C(NCC1(N2CCCCC2)CCCCC1)c1cccs1`, for which the inhibition is inactive: -6.84%.

In the case of `O=C(NCC1(N2CCCCC2)CCCCC1)c1ccc(=O)[nH]c1`, the inhibition was inactive: 20.4%.

As for `COc1ccc(C(=O)NCC2(N3CCCCC3)CCCCC2)c(OC)c1OC`, the inhibition is inactive: -0.73%.

On to `CC(C)(C)OC(=O)N1CCC(N(C(=O)c2ccccc2)c2ccc(F)cc2)CC1`, for which the inhibition was inactive: -15.4%.

`COc1ccc(C(=O)NCC2(N3CCCCC3)CCCCC2)cc1`: the inhibition is inactive: -10.3%.

As for `Cc1cccc(NC2(C#N)CCN(Cc3ccccc3)CC2)c1`, the inhibition was inactive: 1.04%.

For the compound `CSc1ccccc1C(=O)NCC1(N2CCCCC2)CCCCC1`, the inhibition was inactive: -18.5%.

Take `O=C(NCC1(N2CCOCC2)CCCCC1)c1cc2ccccc2o1`: the inhibition was inactive: -11.9%.

Take `Cc1cc(C)cc(N(C(=O)c2ccccc2)C2CCN(C(=O)OC(C)(C)C)CC2)c1`: the inhibition was inactive: 11.3%.

On to `O=C(NCC1(N2CCCCC2)CCCCC1)c1ccc(Cl)nc1`, for which the inhibition is inactive: -15.2%.

Regarding `CCOC(=O)N1CCC(Nc2ccc(OC)cc2)CC1`, the inhibition was inactive: 32%.

With `COc1ccc(Cl)cc1C(=O)NCC1(N2CCOCC2)CCCCC1`, the inhibition is inactive: -6.65%.

As to `O=C(OC1CN2CCC1CC2)C1c2ccccc2Oc2ccccc21` (centres undefined), the inhibition was inactive: -29.4%.

On to `O=C(NCC1(N2CCCCC2)CCCCC1)c1ccc(Cl)s1`, for which the inhibition was inactive: 9.04%.

For `N#CC1(Nc2ccccc2)CCN(Cc2ccccc2)CC1`, the inhibition was inactive: -9.73%.

`CCOc1ccc(C)cc1CN(CCCl)CCCl`: the inhibition is inactive: 6.67%.

`O=C1CCN(Cc2ccccc2)CC1`: the inhibition is inactive: 2.52%.

`CCOC(=O)N1CCC(Nc2ccc(F)cc2)CC1`: the inhibition is inactive: -4.64%.

As for `COc1ccc(NC2CCN(CCc3ccccc3)CC2)c(OC)c1`, the inhibition is inactive: -5.67%.

In the case of `O=C(NCC1(N2CCCCC2)CCCCC1)c1ccc(F)cc1`, the inhibition was inactive: 17.6%.

For the compound `CCCCOc1ccc(C(=O)NCC2(N3CCOCC3)CCCCC2)cc1`, the inhibition was inactive: 3.78%.

As for `O=P1(N(CCCl)CCCl)SCCCS1`, the inhibition is inactive: -12.7%.

For the compound `COc1cc(C(=O)NCC2(N(C)C)CCCCC2)ccc1OC(F)F`, the inhibition was inactive: -5.74%.

Take `CCOC(=O)N1CCC(Nc2cccc(C)c2)CC1`: the inhibition was inactive: 0.66%.

`O=C(NCC1(N2CCCCC2)CCCCC1)c1ccc(OC(F)F)cc1`: the inhibition is inactive: -45.5%.

Regarding `O=C(NCC1(N2CCCCC2)CCCCC1)c1cccc([N+](=O)[O-])c1`, the inhibition was inactive: -20%.

With `CSc1ccc(C(=O)NCC2(N3CCOCC3)CCCCC2)cc1`, the inhibition is inactive: -0.86%.

Take `N#CC1(Nc2ccccc2)CCN(CCc2ccccc2)CC1`: the inhibition was inactive: -20.3%.

With `CCN1CCC(Nc2ccc(Cl)cc2)CC1`, the inhibition was inactive: 9.07%.

In the case of `O=C(NCC1(N2CCCCC2)CCCCC1)c1cccc(C(F)(F)F)c1`, the inhibition is inactive: -8.36%.

For `COc1ccc(NC2CCN(C(=O)OC(C)(C)C)CC2)cc1`, the inhibition was inactive: -4.4%.

For `CC(C)c1ccc(C(=O)NCC2(N3CCOCC3)CCCCC2)cc1`, the inhibition was inactive: 4.08%.

For `CN1CCN(CCOC(=O)C(O)(c2ccccc2)c2ccccc2)CC1`, the inhibition was inactive: 2.59%.

For the compound `O=C(NCC1(N2CCOCC2)CCCCC1)c1cc(=O)[nH]c2ccccc12`, the inhibition was inactive: 3.93%.

`COc1cc(C(=O)NCC2(N3CCCCC3)CCCCC2)ccc1OC(F)F`: the inhibition is inactive: -14.4%.

As for `CN(C)c1cccc(C(=O)NCC2(N3CCCCC3)CCCCC2)c1`, the inhibition was inactive: 5.54%.

On to `COc1ccc(CN(CCCl)CCCl)cc1Cl`, for which the inhibition is inactive: -8.36%.

`CC(C)c1ccc(NC2CCN(C(=O)OC(C)(C)C)CC2)cc1`: the inhibition was inactive: -11.1%.

Regarding `O=C(NCC1(N2CCOCC2)CCCCC1)c1cc(F)c(F)cc1Cl`, the inhibition is inactive: 14.2%.

In the case of `COc1cc(OC)c(C(=O)NCC2(N(C)C)CCCCC2)cc1OC`, the inhibition is inactive: 10.8%.

Regarding `O=C(NCC1(N2CCCCC2)CCCCC1)c1cncc(Br)c1`, the inhibition is inactive: -3.47%.

In the case of `CN1CCC(Nc2cccc(F)c2)CC1`, the inhibition is inactive: 7.08%.

`CCCOc1ccc(C(=O)NCC2(N(C)C)CCCCC2)cc1OC`: the inhibition is inactive: -9.77%.

Turning to `O=C(NCC1(N2CCOCC2)CCCCC1)c1cc(Br)ccc1Cl`, the inhibition is inactive: 17.2%.

`COc1cc(C(=O)NCC2(N3CCOCC3)CCCCC2)cc(OC)c1C`: the inhibition is inactive: -23.1%.

Take `COc1ccc(C(=O)NCC2(N3CCOCC3)CCCCC2)cc1OC`: the inhibition was inactive: -15.6%.

`N/C(=N\O)c1c(N)no[n+]1[O-]`: the inhibition is inactive: 20.5%.

For `CCOC(=O)N1CCC(Nc2ccc(C)cc2)CC1`, the inhibition is inactive: -4.56%.

For the compound `O=C(OC1CN2CCC1CC2)C1c2ccccc2C=Cc2ccccc21` (centres undefined), the inhibition is inactive: 15.5%.

Consider `CC(C)(C)OC(=O)N1CCC(N(C(=O)c2ccccc2)c2ccc(Cl)cc2)CC1`, for which the inhibition was inactive: -13.4%.

Turning to `N#Cc1ccc(C(=O)NCC2(N3CCCCC3)CCCCC2)cc1`, the inhibition was inactive: -6.15%.

As to `CCCN1CCC(Nc2cc(OC)cc(OC)c2)CC1`, the inhibition is inactive: -12.9%.

For `Cc1cc(N(CCCl)CCCl)ccc1C=O`, the inhibition is inactive: -6.94%.

Consider `c1ccc(CN2CCC(Nc3ccccc3)CC2)cc1`, for which the inhibition was inactive: 18%.

In the case of `CN(C)C1(CNC(=O)c2cccc(C#N)c2)CCCCC1`, the inhibition was inactive: 19.7%.

As for `COc1cc(OC)cc(C(=O)NCC2(N3CCCCC3)CCCCC2)c1`, the inhibition was inactive: 11.9%.

As to `CC(=O)N(c1ccccc1)C1CCNCC1`, the inhibition is inactive: 6.38%.

On to `Cc1ccc(NC2(C#N)CCN(Cc3ccccc3)CC2)cc1`, for which the inhibition was inactive: 4.21%.

Regarding `Fc1ccccc1NC1CCN(Cc2ccccc2)CC1`, the inhibition is inactive: 2.88%.

Turning to `Cc1ccc(C(=O)NCC2(N3CCCCC3)CCCCC2)o1`, the inhibition is inactive: 3.34%.

Consider `CCN1CCC(Nc2cccc(F)c2)CC1`, for which the inhibition is inactive: -0.92%.

As to `Cc1ccccc1NC1(C#N)CCN(Cc2ccccc2)CC1`, the inhibition was inactive: -5.29%.

For `Cn1c(=O)[nH]cc(N(CCCl)CCCl)c1=O`, the inhibition was inactive: -5.72%.

On to `CN(C)c1ccc(C(=O)NCC2(N3CCCCC3)CCCCC2)cc1`, for which the inhibition is inactive: -18.2%.

Consider `O=C(NCC1(N2CCCCC2)CCCCC1)c1ccco1`, for which the inhibition is inactive: -17.5%.

Take `CN1CCC(Nc2ccc(F)c(Cl)c2)CC1`: the inhibition was inactive: -13.4%.

As to `CCOc1ncccc1C(=O)NCC1(N2CCOCC2)CCCCC1`, the inhibition is inactive: -10.7%.

In the case of `CCCOc1ccc(C(=O)NCC2(N(C)C)CCCCC2)cc1`, the inhibition was inactive: -9.73%.

In the case of `O=C(O)C1(Nc2ccccc2)CCN(Cc2ccccc2)CC1`, the inhibition was inactive: -4.26%.

Consider `CC(C)(C)OC(=O)N1CCC(Nc2ccccc2)CC1`, for which the inhibition was inactive: -4.7%.

`CCC(CO)(C(=O)OC1CN2CCC1CC2)c1ccccc1` (centres undefined): the inhibition was inactive: -18.8%.

Turning to `COc1cccc(C(=O)N(c2cc(C)cc(C)c2)C2CCN(C(=O)OC(C)(C)C)CC2)c1`, the inhibition is inactive: -4.29%.

For `COc1cc(OC)cc(C(=O)NCC2(N3CCOCC3)CCCCC2)c1`, the inhibition is inactive: -18%.

On to `CN1CCC(Nc2ccc(Cl)cc2)CC1`, for which the inhibition was inactive: 22.1%.
